Source: PubChem
This is a sample that favours compounds with a hit; in the whole collection about 13% have one here.
LMNA splice mod = LMNA splicing modulation | Potency, µM (titrated, usually from 46.1 µM), without a hit: at the highest dose ratio change, negative = inhibition, hits mostly inhibitors | AID 1487 | HeLa LMNA splicing GFP/RFP minigene ratio, 48 h | 0.01% of 200,000 active; active = well fitted inhibition curve with a large enough effect in the signal ratio, with a control signal flat, not every such curve was filed as active; inconclusive = small, poorly fitted or top-dose-only effect, or effect the other way, or a change in a side signal; the % refers to the signal ratio; note: potency is the fitted concentration of half-maximal effect; % is set by controls: 0 for no effect and ±100 for the full control effect
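Read-out is the ratio of GFP to DsRed2 object intensity, acquired by 488 nm laser-scanning cytometry on HeLa lamin A-EGFP minigene reporter cells. Compound incubation 48 hrs at 37 °C in Opti-MEM with 2% FBS; DMSO 0.5% final.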
KDM4E inh = inhibitors of human JMJD2E histone demethylase. JMJD2E catalytic domain, FDH-coupled NADH fluorescence (FDH is formaldehyde dehydrogenase). Potency, µM (doses to about 57.1 µM), without a hit: at the top dose activity change, negative = inhibition, hits mostly inhibitors. B2RXH2. 1.6% of 230,000 active; active = well fitted inhibition curve with a large enough effect, not every such curve was filed as active; inconclusive = small, poorly fitted or top-dose-only effect, or another doubt; inactive = no such curve, though single readings can be large or run the other way;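 note: potency is the fitted concentration of half-maximal effect; 0% = wells with enzyme and -100% = buffer wells without enzyme; nearly all actives have a fitted effect of over 50% in size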
Sfp inh = qHTS Assay for Inhibitors of Bacillus subtilis Sfp phosphopantetheinyl transferase (PPTase); 4'-phosphopantetheinyl transferase ffp (Bacillus subtilis), Q9F4F7; Biochemical Sfp PPTase activity, qHTS; Potency, µM, for inactives: max response, negative = inhibition, most hits filed as inhibitors; hit rate 3.5% among 310,000; AID 1490, 2009; active = well fitted inhibition curve with a large enough effect; inconclusive = small, poorly fitted or top-dose-only effect, or another doubt; inactive = no such curve, though single readings can be large or run the other way;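 also: the enzyme is Sfp with the accession as filed and its product quenches rhodamine fluorescence; potency is read from the fitted curve at half-maximal effect; 0% = enzyme reaction without inhibitor and -100% = no enzyme wells; top concentration of the series not given in the record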
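Buffer: 50 mM Hepes-Na pH 7.6, 10 mM MgCl2, 0.01% Nonidet P-40, 0.01% BSA. Enzyme 15 nM, pre-exposed to compound 15 min; substrates then added and fluorescence change tracked over 30 min.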
miR-21 reporter = raises the signal of a miR-21 reporter | HeLa miR-21 FLuc reporter, luciferase, 48 h | Potency, µM (doses to about 38.3 µM), without a hit: at the top dose reporter change, positive = more light | 340,000 tested, under 10 active | AID 2288; active = well fitted rising curve with a large enough effect; inconclusive = small, poorly fitted or top-dose-only effect; inactive = no such curve, though single readings can be large or run the other way;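 note: % of control where 0% means no effect; miR-21 action dims this reporter so a rising signal means less miR-21 action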
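HeLa cells stably expressing CMV-driven firefly luciferase with a downstream miR-21 binding sequence, endogenously expressing miR-21, were treated with titrations (up to about 40uM final) for 48 hours at 37 degree Celsius. Luciferase luminescence was read after lysis.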
G9a inh = inhibitors of human histone lysine methyltransferase G9a | Q96KQ7 | G9a H3K9 monomethylation, AlphaScreen, 2 h | Potency, µM (series often up to 102 µM), inactives show at the highest dose activity, negative = inhibition, hits mostly inhibitors | 8.8% of 350,000 active | AID 504332; note: potency is the fitted concentration of half-maximal effect; % is set by controls: 0 for no effect and ±100 for the full control effect; nearly all actives have a fitted effect of over 75% in size
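AlphaScreen read-out: biotin-H3K9 peptide (500 nM) methylation by 20 nM enzyme with 20 uM SAM, 2 h at room temperature after 15 min compound preincubation; anti-monomethyl H3K9 antibody plus donor/acceptor beads, 10 min dark.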
ALDH1A1 block = ALDH1A1 (human) enzyme inhibition. P00352. Potency, µM (highest dose often 75.3 µM), for inactives: at the top dose activity, negative = inhibition, hits mostly inhibitors. AID 1030. 7.3% of 220,000 active. Purified ALDH1A1, NADH fluorescence, propionaldehyde substrate; active = well fitted inhibition curve with a large enough effect, not every such curve was filed as active; inconclusive = small, poorly fitted or top-dose-only effect, or another doubt; inactive = no such curve, though single readings can be large or run the other way;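 note: potency is the fitted concentration of half-maximal effect; plate controls were no enzyme wells and a reference inhibitor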
An asterisk follows results filed as active; ? = inconclusive; . = not tested or not shown; [ ] = remark or other dose. Unless noted, calls come from the whole dose curve; as a rule, active = well fitted curve in the direction sought with a large enough effect; inconclusive = small, poorly fitted or top-dose-only effect, or another doubt; inactive = no such curve, though single readings can be large; an effect the other way counts as inactive or inconclusive.

nr	Compound	LMNA splice mod	KDM4E inh	Sfp inh
1	CCCC(C)c1nnc(NC(=O)C2CCCO2)s1 (stereo unspecified)	7.6%	-4.3%	12.6µM*
2	CSc1ccccc1NC(=O)C1CCCO1 (stereo unspecified)	-3.5%	0.2%	79.4µM*
3	COc1cc(NC(=O)c2c(C)oc3ncnc(N4CCCCC4)c23)cc(OC)c1	-1.2%[46 µM]	.	.
4	Cn1nc(C(=O)NCCCN2CCCCC2)c2c1-c1ccccc1S(=O)(=O)C2	.	.	19.9%
5	O=C(Nc1nnc(-c2ccccc2F)s1)C1CCCO1 (stereo unspecified)	-8.6%	-6.1%	-20.0%
6	CCCC(C)c1nnc(NC(=O)c2cc(C(=O)OC)cc([N+](=O)[O-])c2)s1 (stereo unspecified)	1.0%	-11.6%	14.1µM*
7	CCCC(C)c1nnc(NC(=O)C(=O)OCC)s1 (stereo unspecified)	.	0.8%	20µM*
8	O=C(Nc1nnc(Cc2ccc(Cl)cc2)s1)C1CCCO1 (stereo unspecified)	-1.8%[46 µM]	-7.5%	-26.9%
9	CCc1cccc(NC(=O)c2ccc(CNS(=O)(=O)c3ccc4c(c3)C(C)(C)C(=O)N4C)cc2)c1	.	.	.
10	Cc1cccc(NC(=O)C2CCC(CNS(=O)(=O)c3csc(C(N)=O)c3)CC2)c1C (stereo unspecified)	.	.	.
11	CCOC(=O)c1ccc(NC(=O)C2=C(C)Nc3nc(SCc4ccc(Cl)cc4)nn3C2c2ccc(OC)cc2)cc1 (stereo unspecified)	.	.	.
12	C=CCn1c(-c2csc3c2CCC(C)C3)n[nH]c1=S (stereo unspecified)	?	-11.6%	5.9%
13	CCCCn1c(-c2csc3c2CCCC3)n[nH]c1=S	-10.5%	-6.9%	-0.4%
14	CCCCn1c(-c2csc3c2CCC(C)C3)n[nH]c1=S (stereo unspecified)	?	-7.8%	-28.0%
15	CCn1c(-c2csc3c2CCCC3)n[nH]c1=S	-16.6%	-19.4%	-6.2%

nr	miR-21 reporter	G9a inh	ALDH1A1 block
1	-27.3%	?	3.55µM*
2	-1.9%	15.8µM*	0.9%
3	-6.5%	-7.2%[59 µM]	.
4	1.0%	21.1%	.
5	-60.4%	?	20µM*
6	-0.8%	8.91µM*	7.94µM*
7	-2.4%	?	7.94µM*
8	-30.6%	28.2µM*	14.1µM*
9	?	-3.3%[59 µM]	.
10	-32.5%	10.8%[59 µM]	.
11	-4.2%	9.7%[59 µM]	.
12	-4.0%	1.41µM*	?
13	5.1%	?	?
14	16.4%	23.6%[59 µM]	15.8µM*
15	-0.9%	7.94µM*	?

Some of these compounds in order of the ALDH1A1 block value, descending.
No. | SMILES | ALDH1A1 block
14 | CCCCn1c(-c2csc3c2CCC(C)C3)n[nH]c1=S (stereo unspecified) | 15.8µM*
6 | CCCC(C)c1nnc(NC(=O)c2cc(C(=O)OC)cc([N+](=O)[O-])c2)s1 (stereo unspecified) | 7.94µM*
1 | CCCC(C)c1nnc(NC(=O)C2CCCO2)s1 (stereo unspecified) | 3.55µM*

More structures follow:
nr	Compound	LMNA splice mod	KDM4E inh	Sfp inh
16	COc1ccccc1C(=O)Nc1ccc2oc(-c3cccc4c(Br)cccc34)nc2c1	.	.	.
17	COc1ccc(NC(C)=O)cc1NC(=O)C1(c2cccs2)CCOCC1	-3.8%[46 µM]	.	.
18	O=C(O)C1C(c2ccccc2)C(C(=O)Oc2ccccc2)C1c1ccccc1 (stereo unspecified)	11.2%	7.6%	9.9%
19	CC(C)(CN1CCc2ccccc2C1)NS(=O)(=O)c1ccccc1	.	?	-16.7%
20	CCC1CCCCN1CC(C)(C)NS(=O)(=O)c1ccccc1 (stereo unspecified)	.	4.9%	16.2%
21	CC1CC(C)CN(CC(C)(C)NS(=O)(=O)c2ccccc2)C1 (stereo unspecified)	7.3%	?	-13.9%
22	CCOC(=O)N1CCc2c(sc3c2c(=O)n(Cc2ccccc2)c(=O)n3CC(=O)Nc2ccc(F)cc2)C1	.	.	.
23	CCN(CC)CCN1C(=O)c2oc3ccccc3c(=O)c2C1c1ccccc1 (stereo unspecified)	-2.7%	3.2%	11.5%
24	CN(C)CCCN1C(=O)c2oc3ccc(Cl)cc3c(=O)c2C1c1cccnc1 (stereo unspecified)	-0.3%	-0.1%	-1.6%
25	COCCN1C(=O)c2oc3ccccc3c(=O)c2C1c1ccc(O)c(OC)c1 (stereo unspecified)	-8.0%	-25.6%	-8.8%
26	CCCOc1ccc(C2c3c(oc4ccccc4c3=O)C(=O)N2CCN(CC)CC)cc1OC (stereo unspecified)	0.4%	-27.7%	5.1%
27	CCN(CC)CCN1C(=O)c2oc3ccccc3c(=O)c2C1c1cccc(Br)c1 (stereo unspecified)	-3.3%	-7.3%	10.4%
28	CCN(CC)CCCN1C(=O)c2oc3ccccc3c(=O)c2C1c1cccs1 (stereo unspecified)	-6.3%	?	2.8%
29	COc1ccc(OC)c(C2c3c(oc4ccccc4c3=O)C(=O)N2CCCN(C)C)c1 (stereo unspecified)	-4.6%	-0.3%	10.1%
30	CCN(C(=O)COC(=O)c1cc(=O)[nH]c2ccccc12)C1CCS(=O)(=O)C1 (stereo unspecified)	.	?	-11.4%

nr	miR-21 reporter	G9a inh	ALDH1A1 block
16	-1.6%	-25.5%[59 µM]	.
17	-18.7%	3.6%[59 µM]	.
18	-0.3%	1.3%[12.7 µM]	15.8µM*
19	-0.3%	10µM*	.
20	-6.0%	7.08µM*	.
21	-7.6%	8.91µM*	-7.7%
22	12.4%	4.7%[59 µM]	.
23	-12.6%	-1.8%[0.501 µM]	?
24	-10.3%	50.1µM*	?
25	-12.2%	?	-4.4%
26	-14.2%	50.1µM*	-5.7%
27	-6.2%	50.1µM*	-13.9%
28	-6.3%	50.1µM*	?
29	-11.1%	?	3.0%
30	-1.3%	0.1%[59 µM]	.

nr	Compound	LMNA splice mod	KDM4E inh	Sfp inh
31	Cc1ccccc1OCC(=O)OCC(=O)Nc1cc(S(=O)(=O)N2CCCCC2)ccc1Cl	.	.	.
32	CCN1C(=O)[C@H]2[C@@H](c3ccc(-c4ccc(C(C)=O)cc4)cc3)N3CCC[C@@]3(C(=O)OC)[C@H]2C1=O	.	.	.
33	O=C1c2oc3ccc(Cl)cc3c(=O)c2C(c2cccc(Br)c2)N1CCO (stereo unspecified)	-3.3%	-1.1%	3.8%
34	CC(C)CCc1noc(CN2CCN(c3ccc(Cl)cn3)CC2)n1	.	-25.3%	2.6%
35	COc1ccc(Cc2noc(CN3CCN(c4ccc(Cl)cn4)CC3)n2)cc1OC	.	1.0%	4.2%
36	COCCn1c(SCC(=O)N2CCCCC2)nc2ccccc2c1=O	31.7%	3.5%	1.4%
37	CCn1c(SCC(=O)N2CCCC2)nc2ccccc2c1=O	-7.6%	6.0%	-4.6%
38	Cc1ccc(NC(=O)CSc2nc3ccccc3c(=O)n2CCCC(=O)N2CCCC2)cc1	3.8%	6.4%	10.9%
39	O=C(CSc1nc2ccccc2c(=O)n1CCC(=O)N1CCCCC1)NCc1ccccc1	-2.7%	2.2%	1.1%
40	CCCCCCCCc1nc(=S)[nH][nH]1	-6.0%	0.2%	20µM*
41	CCCCCCC1CC(CCc2nc(=S)[nH][nH]2)C(=O)O1 (stereo unspecified)	6.9%	9.8%	-28.9%
42	CCCCCC1CC(CC(=O)O)C(=O)O1 (stereo unspecified)	9.0%	-4.3%	11.0%

nr	miR-21 reporter	G9a inh	ALDH1A1 block
31	.	-25.9%	.
32	.	21.8%[2.33 µM]	.
33	-9.8%	50.1µM*	1.2%
34	2.8%	44.7%	3.98µM*
35	15.4%	.	-1.1%
36	-1.5%	?	10µM*
37	1.0%	25.1%[59 µM]	-4.9%
38	2.9%	6.9%	?
39	1.1%	?	8.91µM*
40	15.0%	0.891µM*	12.6µM*
41	0.1%	1.58µM*	?
42	-0.4%	1.0%[59 µM]	2.9%
